From PubChem BioAssay AID1159614 (National Center for Advancing Translational Sciences (NCATS), 2016)
Only a part is listed here, and it is no random draw. Activity calls are given as the source filed them. Calls come from the whole dose curve; as a rule, active = well fitted activation curve with a large enough effect; inconclusive = small, poorly fitted or top-dose-only effect; inactive = no such curve, though single readings can be large or run the other way.
Note: 0% is about no effect; nearly all actives have a fitted effect of over 65% in size.

Chains of the proteins cited; added tags and fusions are not shown. Lines headed by an entry give the natural chain unless they say otherwise; changes in a name come on top.
UniProt P54803: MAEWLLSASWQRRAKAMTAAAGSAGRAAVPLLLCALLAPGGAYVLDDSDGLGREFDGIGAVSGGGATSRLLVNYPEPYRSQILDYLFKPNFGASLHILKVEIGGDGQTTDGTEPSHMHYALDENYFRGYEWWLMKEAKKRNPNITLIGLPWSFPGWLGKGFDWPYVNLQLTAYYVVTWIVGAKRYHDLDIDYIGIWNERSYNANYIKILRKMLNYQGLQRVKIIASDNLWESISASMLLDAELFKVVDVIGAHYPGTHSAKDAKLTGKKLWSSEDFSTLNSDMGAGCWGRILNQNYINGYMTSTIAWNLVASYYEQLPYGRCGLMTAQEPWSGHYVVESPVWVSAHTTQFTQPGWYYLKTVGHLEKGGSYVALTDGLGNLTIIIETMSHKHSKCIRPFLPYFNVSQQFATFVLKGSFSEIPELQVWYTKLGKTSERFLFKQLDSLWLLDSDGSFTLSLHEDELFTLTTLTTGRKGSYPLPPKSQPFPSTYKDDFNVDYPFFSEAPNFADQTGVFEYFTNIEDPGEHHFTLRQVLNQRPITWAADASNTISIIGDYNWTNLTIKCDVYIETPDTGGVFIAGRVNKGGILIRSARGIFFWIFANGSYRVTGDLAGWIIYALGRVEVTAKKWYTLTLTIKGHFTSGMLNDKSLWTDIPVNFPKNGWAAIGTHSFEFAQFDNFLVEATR

What follows are compounds tested against Galactocerebrosidase (Homo sapiens) (UniProt P54803) (assay: A Novel Cell-Based Assay to Identify Small Molecules for B -Galactocerebrosidase). Settings: 145M-Twi-hGALC-G270D cells (Twitcher mouse brain line with human GALC G270D), HMU-beta-Gal fluorescence, 48 h; at 57.5 µM (top of the series) unless noted.
In the case of `CCNC(C)Cc1ccc2c(c1)OCO2` (stereo not given), the activation was inactive: -12.1% [at 129 µM]. With `Cc1cc([N+](=O)[O-])cc([N+](=O)[O-])c1O` the activation was inactive: -10% [at 114 µM]. `CN(C(=O)Cc1ccccc1)[C@H]1CC[C@@]2(CCCO2)C[C@@H]1N1CCCC1` was tested, and the activation was inactive: -15%. For `CN(C(=O)Cc1ccc(Cl)c(Cl)c1)[C@H]1CC[C@@]2(CCCO2)C[C@@H]1N1CCCC1`, the activation was inactive: -13%. For `NC(=O)Nc1ccc([As](=O)(O)O)cc1`, the activation was inactive: -14.2%.
